Measured values published in patent US9656988B2 (Pharmacyclics LLC, priority 2013, dated 2017).

Amino acid sequences for entries named in this document (tags omitted). A change or cut given only in a name is not applied to a line headed by its entry.
UniProt Q06187: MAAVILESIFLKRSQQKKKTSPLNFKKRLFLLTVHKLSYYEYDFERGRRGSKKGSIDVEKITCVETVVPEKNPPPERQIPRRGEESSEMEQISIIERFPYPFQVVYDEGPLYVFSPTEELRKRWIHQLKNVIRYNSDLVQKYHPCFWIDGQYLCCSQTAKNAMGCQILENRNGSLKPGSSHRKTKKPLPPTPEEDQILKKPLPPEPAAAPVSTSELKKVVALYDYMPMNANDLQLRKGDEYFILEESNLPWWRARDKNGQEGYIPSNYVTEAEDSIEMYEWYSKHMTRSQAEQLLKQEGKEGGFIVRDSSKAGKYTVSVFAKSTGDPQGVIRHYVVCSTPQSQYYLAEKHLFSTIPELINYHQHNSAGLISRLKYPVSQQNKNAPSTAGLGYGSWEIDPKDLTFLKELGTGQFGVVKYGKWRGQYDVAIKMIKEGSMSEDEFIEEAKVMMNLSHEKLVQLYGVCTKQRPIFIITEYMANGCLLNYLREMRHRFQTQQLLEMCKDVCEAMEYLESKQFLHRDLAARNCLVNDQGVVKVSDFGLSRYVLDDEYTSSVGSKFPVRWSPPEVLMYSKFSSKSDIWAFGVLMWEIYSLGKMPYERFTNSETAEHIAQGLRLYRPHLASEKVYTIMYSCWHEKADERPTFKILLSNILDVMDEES

Target: BTK (Homo sapiens (Human), UniProt Q06187)
Test: Btk in vitro inhibitory activity (one of Method A TR-FRET, Method B electrophoretic mobility shift, Method C radiometric filter binding)
Assay type: biochemical
[1] = determined using one of the methods of Example 355a, 355b and 355c

| IC50 [nM] | IC50 [1] [nM] | SMILES |
| --- | --- | --- |
| < 10 | < 10 | CN(C)C(=O)N[C@@H]1CCCN(c2cnc(C(N)=O)c(Nc3ccc(C4CCN(C5CC5)CC4)cc3)n2)C1 [Example 206, (R)-3-(4-(1-cyclopropylpiperidin-4-yl)phenylamino)-5-(3-(3,3-dimethylureido)piperidin-1-yl)pyrazine-2-carboxamide] |
| – | 10 to 100 | COc1ccc(Nc2nc(N3CCC[C@@H](NC(=O)c4ccc(OC)cc4)C3)cnc2C(N)=O)cc1 [Example 110] |

Where two headings read alike, the source gives them in different places.
